The structures appear in SMILES notation. Some of the results follow.

For 74 molecules, relative growth results are on record in published antibiotic growth screens (doi:10.1038/s41589-023-01349-8).

The test system of this experiment is A. baumannii ATCC 17978. In words: relative growth (fraction of control); higher = less inhibition. Conditions: 50 µM.
As to `C[C@H](NC(=O)C[C@@H]1CC[C@@H](NC(=O)CN2CCOCC2)[C@H](CO)O1)c1ccccc1`, the relative growth worked out at 0.956.
To `Nc1ncnc2c1ncn2C1O[C@H](COP(=O)(O)O)[C@@H](O)[C@H]1O` (some centres undefined) belongs 0.898.
Next, `CCCNC(=O)N1C[C@H](O)COC[C@H]2O[C@H](CC(=O)NCCCN3CCOCC3)CC[C@@H]21`: 1.19; `COc1cccc(S(=O)(=O)Nc2ccc3c(c2)[C@H]2C[C@H](CC(=O)NC4CCCCC4)O[C@H](CO)[C@H]2O3)c1`: 0.95; `NC(=O)c1ccc[n+]([C@@H]2O[C@H](COP(=O)([O-])OP(=O)(O)OC[C@H]3O[C@@H](n4cnc5c(N)ncnc54)[C@H](O)[C@@H]3O)[C@@H](O)[C@H]2O)c1`: 1.02.
To `O=C(C[C@H]1CC[C@H](NC(=O)C2CC2)[C@@H](CO)O1)NCCCN1CCOCC1` belongs 0.948.
The molecule `O=C(Cc1ccccn1)NCC[C@H]1CC[C@@H](NC(=O)CN2CCOCC2)[C@H](CO)O1` registered a relative growth of 0.963.
To `Cc1ccc(S(=O)(=O)N2C[C@@H](O)COC[C@H]3O[C@H](CC(=O)NCc4ccc(Cl)c(Cl)c4)CC[C@@H]32)cc1` belongs 1.
Take `O=C(CCCCCCC(=O)Nc1ccc([C@H]2O[C@@H](CSc3nc(-c4ccccc4)c(-c4ccccc4)o3)C[C@H](c3ccc([N+](=O)[O-])cc3)O2)cc1)NO`: the relative growth worked out at 1.41.
The molecule `CN(c1ccc(N)cc1[N+](=O)[O-])S(C)(=O)=O` showed a relative growth of 1.
Next, `COc1cccc(S(=O)(=O)N2C[C@H](O)COC[C@H]3O[C@H](CC(=O)N4CCOCC4)CC[C@@H]32)c1`: 0.894; `COc1c2ccoc2cc2oc(C)cc(=O)c12`: 1.14; `[N-]=[N+]=NCc1ccccc1C[C@]1(C(=O)NCCN2CCOCC2)COC(c2ccc(OCCCO)cc2)=N1`: 0.697.
Next, `Cc1ccc(S(=O)(=O)NCC[C@H]2CC[C@H](NS(=O)(=O)c3ccccc3Cl)[C@@H](CO)O2)cc1`: 0.942; `C[C@@H]1CN([C@H](C)CO)S(=O)(=O)c2ccc(C#CCN(C)C)cc2O[C@H]1CN(C)C(=O)Nc1ccccc1F`: 0.948; `C[C@H]1CN([C@@H](C)CO)S(=O)(=O)c2ccc(C#CC(C)(C)O)cc2O[C@H]1CN(C)C(=O)C1CCCCC1`: 0.967.
To `CCCCCC(=O)Cc1cc(O)cc(O)c1C(=O)Oc1cc(CC(=O)CCCCC)c(C(=O)O)c(OC)c1` belongs 1.11.
In turn, `O=C(O)C[C@@H]1CC[C@H]2[C@@H](COC[C@H](O)CN2S(=O)(=O)c2ccc(F)cc2)O1` yielded a relative growth of 1.05.
To `COc1ccc(-c2coc3cc(O)ccc3c2=O)c(O)c1O` belongs 1.09.
To `CC(=O)O[C@@]12CO[C@@H]1C[C@H](O)[C@@]1(C)C(=O)[C@H](O)C3=C(C)[C@@H](OC(=O)[C@H](O)[C@@H](NC(=O)OC(C)(C)C)c4ccccc4)C[C@@](O)([C@@H](OC(=O)c4ccccc4)C12)C3(C)C.O.O.O` (some centres undefined) belongs 1.29; to `C[C@H](CO)N1C[C@H](C)[C@H](CN(C)S(=O)(=O)c2cn(C)cn2)Oc2cc(C3=CCCC3)ccc2S1(=O)=O`, 1.07; to `COCC#Cc1ccc2c(c1)O[C@@H](CN(C)S(=O)(=O)c1ccc(C)cc1)[C@@H](C)CN([C@@H](C)CO)S2(=O)=O`, 1.02.
Next, `C=CC[C@@H](CC(=O)NCCO)C(=O)N[C@@H](COC(=O)[C@@H](CC=C)CC(=O)OC(C)(C)C)Cc1ccccc1`: 1.02; `CN[C@@H]1[C@H](O)[C@H](NC)[C@H]2O[C@@]3(O)C(=O)C[C@@H](C)O[C@H]3O[C@@H]2[C@H]1O.Cl.Cl`: 0.538.
In the case of `NCCSC12CC3CC(CC(C3)C1)C2`, the relative growth worked out at 0.899.
For the molecule `CC(C)CN1C(=O)C[C@@H](N2CCOCC2)C1=O`, the relative growth came to 0.979.
Next, `O=C(O)c1ccc(-n2nc(-c3ccccc3O)nc2-c2ccccc2O)cc1`: 1.15.
To `CC(C)(C)NCC(O)COc1cccc2c1C[C@H](O)[C@H](O)C2` (mixture of isomers) belongs 0.922.
The molecule `COc1cc2nc(N3CCCN(Cc4ccccc4)CC3)nc(NC3CCN(Cc4ccccc4)CC3)c2cc1OC` came in with a relative growth of 0.931.
Next, `CO[C@H](CN(C)C(=O)c1ccc2c(c1)OCO2)[C@@H](C)CN([C@H](C)CO)S(=O)(=O)c1ccc(C)cc1`: 1.07; `Cn1c(=O)c2c(NCCO)ccnc2n(C)c1=O`: 0.908; `CN1C(C(=O)Nc2ccccn2)=C(O)c2ccccc2S1(=O)=O`: 1.19.
To `COc1c(C)c2c(c(O)c1C/C=C(\C)CCC(=O)OCCN1CCOCC1)C(=O)OC2` belongs 0.919; to `C[C@H](O)C#Cc1cnc2c(c1)C(=O)N([C@@H](C)CO)C[C@@H](C)[C@H](CN(C)C(=O)Nc1ccc(C(F)(F)F)cc1)O2`, 0.992.
Next, `COCCOC(=O)C1=C(C)NC(C)=C(C(=O)OC(C)C)C1c1cccc([N+](=O)[O-])c1` (centres undefined): 1.21; `NC(=O)N1CCC(=O)Nc2ccccc21`: 1.01.
Turning to `CCS(=O)(=O)NCC[C@@H]1CC[C@@H](NC(=O)Cc2ccccn2)[C@H](CO)O1`, the relative growth was found to be 1.02.
Molecule `CC[N+](C)(C)c1cccc(O)c1.[Cl-]` showed a relative growth of 1.27.
Next, `O=C(C[C@H]1C=C[C@@H](NC(=O)Cc2ccccn2)[C@@H](CO)O1)NCCCN1CCOCC1`: 0.935; `C[C@H]1O[C@@H](O[C@H]2[C@@H](O)C[C@H](O[C@H]3[C@@H](O)C[C@H](O[C@H]4CC[C@]5(C)C6CC[C@]7(C)[C@@H](C8=CC(=O)OC8)CC[C@]7(O)C6CC[C@@H]5C4)O[C@@H]3C)O[C@@H]2C)C[C@H](O)[C@@H]1O` (some centres undefined): 1.01.
To `CSc1ccc(Sc2ccc(SC)cc2)cc1` belongs 1.08; to `Cc1ccc(S(=O)(=O)N2C[C@H](O)COC[C@@H]3O[C@@H](CC(=O)NCc4ccc(Cl)c(Cl)c4)CC[C@H]32)cc1`, 0.875; to `c1coc(-c2nc3ccccc3n2CCC2CCCCC2)c1`, 0.74.
Next, `CNC[C@@H](O)c1ccc(O)c(O)c1.O=C(O)C(O)C(O)C(=O)O`: 1.08; `COCC#Cc1ccc2c(c1)O[C@@H](CN(C)S(=O)(=O)c1cccc(F)c1)[C@@H](C)CN([C@@H](C)CO)S2(=O)=O`: 0.985.
Consider `C[C@H](CO)N1C[C@H](C)[C@H](CN(C)C(=O)c2ccccc2)Oc2cc(C#C[C@@H](C)O)ccc2S1(=O)=O`, for which the relative growth was found to be 0.955.
Next, `NC(=O)C[C@H]1Sc2ccccc2NC1=O`: 0.938.
Next, `O=C1O[C@@H](c2ccccc2)[C@@H](c2ccccc2)N2[C@@H](c3ccc(OCCO)cc3)[C@]3(C(=O)Nc4ccc(C#CC5=CCCCC5)cc43)[C@@H](C(=O)N3CCCCCCC3)[C@H]12`: 0.999.
Take `CNC[C@@H]1Oc2cc(C#CC(C)(C)O)ccc2S(=O)(=O)N([C@@H](C)CO)C[C@H]1C`: the relative growth stood at 1.04.
Next, `OC[C@@H](O)[C@@H](O)[C@@H](O)[C@H](O)[C@@H](O)CO`: 0.985.
Next, `COCCOC(=O)N1C(=O)[C@@]2(c3cc(C#CC4=CCCCC4)ccc31)[C@H](C(=O)N1CCc3cc(OC)c(OC)cc3C1)[C@H]1C(=O)O[C@H](c3ccccc3)[C@H](c3ccccc3)N1[C@@H]2c1ccc(O)cc1`: 1.09; `COc1cc2c(c3ccccc13)OC(C)(C)C=C2`: 1.07.
To `NNC(=O)C1[C@H]2CCCC[C@@H]12` (some centres undefined) belongs 0.887; to `Cc1ccc(Oc2ccc(CN)cc2)cc1`, 0.673; to `O=C(C[C@@H]1CC=CCC[C@@H](Cc2ccc(F)cc2)C(=O)OC[C@@H](Cc2c[nH]c3ccccc23)NC1=O)N[C@H](CO)Cc1ccccc1`, 0.818.
Turning to `C=CCOC(=O)[C@H]1[C@@H]2C(=O)O[C@@H](c3ccccc3)[C@@H](c3ccccc3)N2[C@@H](c2ccc(OCCOC(=O)[C@H]3C[C@H]4C(=O)N[C@@H](CCCC[N+](C)(C)C)C(=O)N4[C@H]3c3cccc(OCCO)c3)cc2)[C@]12C(=O)Nc1ccccc12`, the relative growth is 1.44.
Turning to `CC(C)CC#Cc1ccc2c(c1)O[C@@H](CN(C)S(=O)(=O)c1cccc(F)c1)[C@@H](C)CN([C@H](C)CO)S2(=O)=O`, the relative growth worked out at 1.15.
For `CO[C@H]1CN(C)C(=O)c2ccc(NC(=O)C3CC3)cc2OC[C@@H](C)N(C(=O)Cc2ccccn2)C[C@@H]1C`, the relative growth was 1.23.
Next, `COc1ccc(S(=O)(=O)N2C[C@H](O)COC[C@H]3O[C@H](CC(=O)N[C@H]4CCN(Cc5ccccc5)C4)CC[C@@H]32)cc1`: 1.09; `COCC(=O)N1C[C@H](C)[C@@H](OC)CN(C)C(=O)c2cc(NC(=O)c3ccc(OC)cc3)ccc2OC[C@H]1C`: 1.05.
For the molecule `CCCCCOC(=O)Nc1nc(=O)n(C2O[C@H](C)[C@@H](O)[C@H]2O)cc1F` (some centres undefined), the relative growth is 1.08.
To `C[C@@H]1CCCCO[C@@H](CN(C)Cc2ccc3c(c2)OCO3)[C@@H](C)CN([C@H](C)CO)C(=O)c2cc(NS(=O)(=O)c3ccc(Cl)cc3)ccc2O1` belongs 0.886; to `Cn1c(=O)c2c(nc(S(C)(=O)=O)n2C)n(C)c1=O`, 1.02.
Next, `C[C@H]1CN([C@@H](C)CO)S(=O)(=O)c2ccc(Br)cc2O[C@H]1CN(C)C(=O)c1cccc(F)c1`: 1.06.
Next, `CN(C)CC(=O)N[C@@H]1CC[C@@H](CC(=O)NCCN2CCCCC2)O[C@H]1CO`: 1.03; `Cc1cccc(S(=O)(=O)N2C[C@@H](O)COC[C@H]3O[C@H](CC(=O)N4CCN(C)CC4)CC[C@@H]32)c1`: 1.1; `CC(C)(C)CC(C)(C)c1ccc(OCCOCC[N+](C)(C)Cc2ccccc2)cc1.[Cl-]`: 0.163.
For the molecule `NC(=O)c1c(F)c(F)c(N)c(F)c1F`, the relative growth was determined as 0.885.
To `C[C@H]1CN([C@@H](C)CO)C(=O)Cc2cc(NC(=O)Nc3ccc(F)cc3)ccc2O[C@H]1CN(C)S(=O)(=O)c1ccc(Oc2ccccc2)cc1` belongs 1.14.
Next, `Cc1ncc(CO)c(CO)c1O.Cl`: 0.857; `CC(N)(Cc1cccc(O)c1)C(=O)O` (centres undefined): 1.1.
Next, `Cn1cnc(S(=O)(=O)N2C[C@@H](O)COC[C@H]3O[C@@H](CC(=O)N4CCN(c5ccccc5)CC4)CC[C@@H]32)c1`: 1.19; `O=C(N/N=C/[C@@H](O)[C@@H](O)[C@H](O)[C@H](O)CO)c1ccccn1`: 0.851.
In turn, `CCc1ccc(-c2cc3c(=O)n(CC(=O)NCCN4CCOCC4)nc(C)n3n2)cc1` had a relative growth of 0.852.
